Source: patent US8445240B2, “Termite enzymes and uses thereof for in vitro conversion of lignin-containing materials to fermentable products” (University of Florida Research Foundation, Inc., priority 2009, dated 2013)

Experiments:
Cellobiose = assay: purified protein, by the assay type
Oc1ccc(O)cc1 = assay: purified protein, by the assay type

Substance	Km (Cellobiose) [µM]	Vmax (Cellobiose) [µmol/min/mg]	Km (Oc1ccc(O)cc1) [µM]
recombinant RfBGluc-1 β-glucosidase (Reticulitermes flavipes)	1440 ± 140	638	
RfLacA (Reticulitermes flavipes)			2306
